Assay: Administration route study in hairless rats with Sumatriptan Succinate (Example 10)
Details: rat, in vivo, topical or ocular, 3 mg
Protocol: In this study, four groups of hairless rats were tested under the following conditions: (1) Group 1 (3 mg free base API, Suc: 0.5 mg, AA: 1 mg); (2) Group 2 (6 mg free base API, Suc: 0.5 mg, AA: 1 mg); (3) Group 3 (9 mg free base API, Suc: 0.5 mg, AA: 1 mg); and (4) Group 4 (6 mg free base API per 100 μL head of saline).
The given bioavailability of Table 18 is relative bioavailability against SC injection.

Tmax: 48 min
SMILES: CNS(=O)(=O)Cc1ccc2[nH]cc(CCN(C)C)c2c1 [Sumatriptan Succinate]

— patent US12324893B2, “Triptan microporation delivery system” (PassPort Technologies, Inc., priority 2019, dated 2025)
